Assay results taken from patent publication US20080145340A1, “Neuroactive agents and methods of their use” (The University of Western Australia, priority 2005, published 2008).

Chains of the proteins cited; added tags and fusions are not shown. Residues count along the entry.
UniProt P26453, 23-388: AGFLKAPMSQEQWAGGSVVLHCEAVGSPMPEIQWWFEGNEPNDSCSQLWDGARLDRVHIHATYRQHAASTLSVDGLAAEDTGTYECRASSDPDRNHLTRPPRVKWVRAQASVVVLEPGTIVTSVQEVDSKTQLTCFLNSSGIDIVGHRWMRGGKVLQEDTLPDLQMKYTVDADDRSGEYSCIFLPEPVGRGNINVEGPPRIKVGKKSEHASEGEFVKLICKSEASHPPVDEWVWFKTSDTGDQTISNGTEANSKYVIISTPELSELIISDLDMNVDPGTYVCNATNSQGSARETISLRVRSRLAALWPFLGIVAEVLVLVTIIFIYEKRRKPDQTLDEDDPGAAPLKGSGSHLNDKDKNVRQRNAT

Target: CD147 receptor on rat cortical neuronal cultures (rat) (UniProt P26453)
Experiment: cell-based or functional assay

ERK1 (p44) activation at 5 min, rhCyPA 100 nM, immunoblot densitometry: 2.6 fold
ERK2 (p42) activation at 5 min, rhCyPA 100 nM, immunoblot densitometry: 3.3 fold
Substance: recombinant human cyclophilin A (from UniProt P62937 1-165) (ligand)
neuronal survival after cumene exposure, CyPA 10 nM (MTS assay; 15% without CyPA): 56%
neuronal survival after cumene exposure, CyPA 100 nM (MTS assay; 15% without CyPA): 70%
neuronal survival after in vitro ischemia, rhCyPA 100 nM (MTS assay; 24% without CyPA): 35%
